According to patent US9757356B2 (CHONNAM NATIONAL UNIVERSITY HOSPITAL, priority 2015, dated 2017):

Tested on: cardiac fibroblasts (cFBs)
Assay: BrdU cell proliferation assay, cardiac fibroblasts in cardiomyocyte/cardiac fibroblast co-culture
Assay type: cell-based, rat
Conditions: BIO 5 μM and 10 μM vs LiCl, same manner as Example 3, FIG. 8
Experimental: Hearts of two-day-old rats were removed and washed with physiological saline. Thereafter, left cardiac muscles were separated from the hearts in a sterilization cabinet, and microtomed into segments. These myocardial tissues were added to a collagenase enzyme solution, reacted at 37° C. while stirring, and then centrifuged to collect only the supernatant which were then kept in a cell culture flask. After an hour, cardiomyocytes which floated when the supernatant was transferred to a new culture flask were separated from cardiac fibroblasts attached to the bottom of the cell culture flask. At this point, both the cardiomyocytes and the cardiac fibroblasts were cultured in a Dulbecco's modified Eagle's medium (DMEM) supplemented with 10% fetal bovine serum (FBS) and then used for experiments.
After 2 days and 5 days, the proliferation of cells was quantified. […]
Then, cells which were not stained with cardiac troponin I but stained with DAPI were regarded as cardiac fibroblasts and then counted.
An inhibitory effect on the proliferation of the cardiac fibroblasts was comparatively evaluated in the same manner as in Example 3 in the BIO-treated group and the LiCl-treated group.

Structure (SMILES): O=C1Nc2cc(Br)ccc2/C1=C1/Nc2ccccc2/C1=N\O [BIO, (2′Z,3′E)-6-bromoindirubin-3′-oxime]
- inhibitory effect on the proliferation of the cardiac fibroblasts: observed
